Only some compounds are listed: those with a hit (about 2.3% of all), similar ones and a draw of the others.
Mito fusion act = inhibitors of mitochondrial division or activators of mitochondrial fusion | S. cerevisiae fusion-defective mutant growth rescue, CellTiterGlo 48 h | Potency, µM (highest dose often 46.1 µM), hits mostly activators | actives 0.23% (n = 320,000); also: nearly all actives have a fitted effect of over 45% in size
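Yeast fusion mutant, YPEG (non-fermentable carbon), compound, 48 h at 37C non-permissive; CellTiterGlo added, 10 min RT, luminescence read. Rescued growth = division inhibition.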
Nrf2 block = Nrf2 pathway inhibition | A549 ARE-Fluc reporter, luciferase luminescence, 18-24 h | Potency, µM (titrated, usually from 46 µM), actives largely listed as inhibitors | actives 2.1% (n = 360,000); also: nearly all actives have a fitted effect of over 60% in size
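A549 ARE_Fluc cells, 5000/well, 5% FBS OPTI-MEM; compounds in dose-response, 18-24 h at 37 °C/5% CO2; CellTiter-Fluor viability read (Ex 405/Em 525), then BugLite luciferase luminescence = Nrf2 activity.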
Nrf2 ARE act = Nrf2 pathway activation | AID 624171 | AREc32 ARE-luciferase reporter (MCF7-derived line), luminescence, 24 h | Potency, µM (top dose mostly 46.1 µM), hits mostly activators | actives 0.31% (n = 410,000); also: nearly all actives have a fitted effect of over 65% in size
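ARE-driven firefly luciferase activity in AREc32 cells measured after a 24 hr compound exposure at 37 deg C, using Steady-Glo reagent and a 30 min room-temperature hold.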
A549 tox = kills or reduces viability of A549 cells in Nrf2 counter-screen; A549 ARE-Fluc cells, CellTiter-Fluor viability, 18-24 h; Potency, µM (top dose mostly 46 µM), usual class: inhibitors; actives 0.16% (n = 390,000); AID 504648
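A549 ARE_Fluc cells in 5% FBS OPTI-MEM were exposed to compounds in concentration-response for 18-24 h at 37 deg C. Viability was read by CellTiter-Fluor fluorescence (Ex 405/Em 525) after 30 min, before the luciferase read.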
miR-21 FLuc = miR-21 reporter, rising signal; Potency, µM (doses to about 38.3 µM); HeLa miR-21 FLuc reporter, luciferase, 48 h; 340,000 tested, under 10 active; active = well fitted rising curve with a large enough effect; inconclusive = small, poorly fitted or top-dose-only effect; inactive = no such curve, though single readings can be large or run the other way;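 further: miR-21 action dims this reporter so a rising signal means less miR-21 action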
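Using DMEM plus 10% FBS, HeLa miR-21-FLuc cells are incubated with test compounds (final up to about 40uM) for 48 hours; firefly luciferase signal is then imaged following reagent-mediated lysis.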
Numbers stand for hits. Unless noted, calls follow the shape of the dose curve; as a rule, active = well fitted curve in the direction sought with a large enough effect; inconclusive = small, poorly fitted or top-dose-only effect, or another doubt; inactive = no such curve, though single readings can be large; an effect the other way counts as inactive or inconclusive.

Results for C[n+]1c(-c2ccccc2)c2cc(N)ccc2c2ccc(N)cc21 ?
Mito fusion act: inactive; Nrf2 block: 1.84µM; Nrf2 ARE act: inactive; A549 tox: inconclusive; miR-21 FLuc: inconclusive

What do the screens show for `CCOC(=O)CN1C(=O)N[C@@H](c2cccc(C(F)(F)F)c2)C(C(C)=O)=C1C`?
Nrf2 block: inconclusive; Nrf2 ARE act: inactive; A549 tox: inactive

What do the screens show for `Cc1ccc(Sc2ccc(N3CCCC(C(=O)Nc4ccc(Cl)cc4)C3)nn2)cc1` (stereo not given)?
Nrf2 block: inconclusive; Nrf2 ARE act: inactive; A549 tox: inactive; miR-21 FLuc: inactive

Results for Cc1ccc(NC(=O)C2CCCN(c3ncnc4onc(C)c34)C2)c(Cl)c1 (stereo not given) ?
Nrf2 block: 25.9µM; Nrf2 ARE act: inactive; A549 tox: inactive; miR-21 FLuc: inactive

How did C[C@@H](C1CC[C@@]2(O)C3=CC(=O)[C@@H]4C[C@@H](O)[C@@H](O)C[C@]4(C)[C@H]3CC[C@]12C)[C@H](O)CCC(C)(C)O (stereo not given in full) do in these assays?
Nrf2 block: inactive; A549 tox: inactive

How did CCOc1ccc(S(=O)(=O)N(CC(=O)NCCc2ccc(OC)c(OC)c2)c2ccccc2)cc1 do in these assays?
Nrf2 block: inconclusive; Nrf2 ARE act: inactive; A549 tox: inactive; miR-21 FLuc: inactive

What do the screens show for `CCOc1ccc(S(=O)(=O)N(CC(=O)NCc2ccccc2OC)c2ccccc2)cc1`?
Nrf2 block: 16.4µM; Nrf2 ARE act: inactive; A549 tox: inactive; miR-21 FLuc: inactive

What do the screens show for `COc1ccc(Nc2cc(C)c3cc(NC(=O)c4ccccc4Cl)ccc3n2)cc1`?
Nrf2 block: 25.9µM; Nrf2 ARE act: inactive; A549 tox: inactive; miR-21 FLuc: inactive

What do the screens show for `CC(=O)N1c2ccc(S(=O)(=O)N3CCCC(C(=O)Nc4cc(C)cc(C)c4)C3)cc2CC1C` (stereo not given)?
Mito fusion act: inactive; Nrf2 block: inconclusive; Nrf2 ARE act: inactive; A549 tox: inactive; miR-21 FLuc: inactive

Results for CC(=O)N1c2ccc(S(=O)(=O)NCC3CCC(C(=O)Nc4cc(C)cc(C)c4)CC3)cc2CC1C (stereo not given) ?
Nrf2 block: 20.6µM; Nrf2 ARE act: inactive; A549 tox: inactive; miR-21 FLuc: inactive

Results for CCn1c(C)c(C(=O)O)c2cc(OC)ccc21 ?
Mito fusion act: inactive; Nrf2 ARE act: inactive; A549 tox: inactive; miR-21 FLuc: inactive

What do the screens show for `CCCn1c(C)c(C(=O)c2ccc3ccccc3c2)c2ccccc21`?
Mito fusion act: 13µM

Results for COc1ccc(C(=O)Nc2sc3c(c2C(=O)O)CC(C)(C)OC3)cc1 ?
Mito fusion act: inactive; Nrf2 block: 8.2µM; Nrf2 ARE act: inactive; A549 tox: inactive; miR-21 FLuc: inactive

Results for CCN(CCNc1ccc([N+](=O)[O-])c2cccnc12)S(=O)(=O)c1ccccc1 ?
Mito fusion act: inactive; Nrf2 block: inactive; Nrf2 ARE act: inactive; A549 tox: inactive; miR-21 FLuc: inactive

Results for Cc1c(NS(=O)(=O)c2ccccc2)ccc([N+](=O)[O-])c1Cl ?
Nrf2 block: 14.6µM; Nrf2 ARE act: inactive; A549 tox: inconclusive

How did Nc1nc(F)nc2c1ncn2[C@@H]1O[C@H](CO)[C@@H](O)[C@H]1O do in these assays?
Nrf2 block: 0.92µM; Nrf2 ARE act: inactive; A549 tox: inconclusive

How did O=C(CSC1c2ccccc2-c2ccccc21)N/N=C/c1ccccc1O do in these assays?
Mito fusion act: inactive; Nrf2 block: 5.17µM; Nrf2 ARE act: inactive; A549 tox: 20.6µM; miR-21 FLuc: inactive

Results for O=C(CSC1c2ccccc2-c2ccccc21)N/N=C/c1ccc(C(=O)O)cc1 ?
Mito fusion act: inactive; Nrf2 block: inactive; Nrf2 ARE act: inactive; A549 tox: inactive; miR-21 FLuc: inactive

Results for Clc1ccc(C(Cn2ccnc2)OCc2csc3c(Cl)cccc23)c(Cl)c1 (stereo not given) ?
Mito fusion act: 3.55µM; Nrf2 block: inconclusive; Nrf2 ARE act: inactive; A549 tox: inconclusive

What do the screens show for `COc1ccccc1N=Nc1ccc(N)c(C)c1`?
Mito fusion act: inactive; Nrf2 block: inactive; Nrf2 ARE act: inactive; A549 tox: inconclusive; miR-21 FLuc: inactive

What do the screens show for `c1ccc(-c2nn(-c3ccccc3)[n+](-c3ccccc3)n2)cc1`?
Nrf2 block: 20.6µM; Nrf2 ARE act: inactive; A549 tox: inactive

How did CC1=CC(=O)OC2CC3OC4C[C@@H](C)C5OC6CC7O[C@]8(C)C/C=C\C9OC%10CC%11OC(CC(C)CO)CC(O)[C@]%11(C)OC%10CC9OC8C[C@]7(C)O[C@]6(C)CCC5OC4C[C@]3(C)OC12 (stereo not given in full) do in these assays?
Mito fusion act: inactive; Nrf2 block: inactive; Nrf2 ARE act: inactive; A549 tox: inactive; miR-21 FLuc: inactive

What do the screens show for `C=C(COC(=O)CCC(=O)O)CC1CC(O)[C@]2(C)OC3CC4OC5C[C@]6(C)O[C@]7(C)CCC8OC9C[C@]%10(C)OC%11C(C)=CC(=O)OC%11CC%10OC9C[C@@H](C)C8OC7CC6O[C@]5(C)C/C=C\C4OC3CC2O1` (stereo not given in full)?
Mito fusion act: 15.8µM; Nrf2 block: inactive; Nrf2 ARE act: inactive; A549 tox: inactive; miR-21 FLuc: inactive

What do the screens show for `O=c1[nH]c(=O)n(CCC2=CCCCC2)c(O)c1/C=N/Nc1ccccc1`?
Mito fusion act: inactive; Nrf2 block: 23.1µM; Nrf2 ARE act: inactive; A549 tox: inactive; miR-21 FLuc: inactive

How did CC1=CC(=C2C(=O)NC(=S)NC2=O)C=C(C(F)(F)F)N1Cc1ccccc1 do in these assays?
Mito fusion act: inconclusive; Nrf2 block: inconclusive; Nrf2 ARE act: inactive; A549 tox: 14.6µM; miR-21 FLuc: inactive

Results for Fc1ccc([C@@H]2CCNC[C@H]2COc2ccc3c(c2)OCO3)cc1 ?
Mito fusion act: inactive; Nrf2 block: inactive; Nrf2 ARE act: inactive; A549 tox: inconclusive; miR-21 FLuc: inconclusive

What do the screens show for `ClC1=C(Cl)C(Cl)=C(Cl)C1=C/C=C/c1ccccc1`?
Mito fusion act: inactive; Nrf2 block: inconclusive; Nrf2 ARE act: inconclusive; A549 tox: inconclusive; miR-21 FLuc: inactive

Results for Cc1ccc(N2CCN(C(=O)C3CCC(CNS(=O)(=O)c4ccc(Br)s4)CC3)CC2C)cc1 (stereo not given) ?
Nrf2 block: 9.2µM; Nrf2 ARE act: inactive; A549 tox: inactive; miR-21 FLuc: inactive

Results for COc1ccc(-n2c(-c3ccco3)nc3c(cnn3-c3ccc(Cl)cc3)c2=O)cc1 ?
Nrf2 block: 25.9µM; Nrf2 ARE act: inactive; A549 tox: inactive; miR-21 FLuc: inactive

What do the screens show for `C=C[C@@H]1C[C@@]1(C)[C@@H](NP(=O)(c1ccccc1)c1ccccc1)c1ccccc1`?
Mito fusion act: 17.8µM; Nrf2 block: inactive; Nrf2 ARE act: inactive; A549 tox: inactive; miR-21 FLuc: inactive

Screening results as filed in PubChem BioAssay.
